# The list shows a part of the results, in another mix than the full data. Activity calls are given as the source filed them.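 Rule for the calls: active = highest replicate inhibition of at least 40%; inactive = the rest.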
# Biological target: Golgi-associated PDZ and coiled-coil motif-containing protein (Homo sapiens) (UniProt Q9HD26)
# Test: CAL PDZ peptide-binding inhibitors, primary screen, biochemical, fluorescence polarization, Cer-tagged CAL PDZ, HTS (AID 504414);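 note: plate controls were DMSO neutral control wells for no effect and unlabeled competitor peptide control wells for full effect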
# Conditions: purified CAL PDZ, TMR-peptide fluorescence polarization, 1 h; at 20 µM; stronger effect = higher value
row,Compound,inhibition
1,Cc1cc(SC(NC=O)C(Cl)(Cl)Cl)ncn1 (configuration not stated),inactive: -1.07%
2,O=P(Nc1ccccn1)(c1cccc2ccccc12)c1cccc2ccccc12,inactive: -0.83%
3,O=[N+]([O-])c1ccc(Nc2ccc(Oc3ccc([N+](=O)[O-])cc3[N+](=O)[O-])cc2)c([N+](=O)[O-])c1,inactive: -0.529%
4,CCOC(=O)Nc1ccc([As](=O)(O)O)c(O)c1,inactive: -0.274%
5,CC1CCNP(=O)(N(CCCl)CCCl)O1 (configuration not stated),inactive: 26%
6,CCCCOc1ccc(C(=O)NCC2(N3CCCCC3)CCCCC2)cc1OC,inactive: -4.48%
7,Cc1cc(SC(NC(=O)c2ccccc2)C(Cl)(Cl)Cl)nc(C(C)C)n1 (configuration not stated),inactive: 0.258%
8,O=C(OC1CN2CCC1CC2)c1cccc([N+](=O)[O-])c1 (configuration not stated),inactive: -0.851%
9,CCOC(=O)c1ccc(NC(=O)C(C)(CCl)SC)cc1 (configuration not stated),inactive: -0.725%
10,CCC(C)N(CC(C)C)C(=S)SC(NC(C)=O)C(Cl)(Cl)Cl (configuration not stated),inactive: 0.248%
11,COP1(=S)c2c(C)nn(CCC#N)c2N=C(c2ccc(F)cc2)N1C (configuration not stated),inactive: -1.22%
12,O=C(COc1ccccc1)OC1CN2CCC1CC2 (configuration not stated),inactive: -2.54%
13,O=C(Nc1ccncc1[N+](=O)[O-])c1ccc([N+](=O)[O-])cc1[N+](=O)[O-],inactive: -0.153%
14,COc1ccccc1CNC(=O)COC(=O)C(O)(c1ccccc1)c1ccccc1,inactive: -0.307%
15,CN(C(=O)Cc1ccc(Cl)c(Cl)c1)[C@@H]1CCCC[C@H]1N1CCCC1,inactive: -0.256%
16,CC(C)/C=N\N=C(\N)N[N+](=O)[O-],inactive: -1.08%
17,CC1(CBr)Cn2c(nc3ccccc3c2=O)S1 (configuration not stated),inactive: -0.64%
18,CCC1=CC2Cc3nc4ccc(Cl)cc4c(N)c3C(C1)C2 (configuration not stated),inactive: -10.3%
19,O=P1(Nc2ccccn2)COc2ccccc2OC1,inactive: -0.109%

row,Compound,inhibition
1,CCOP(=O)(NC(=NC(C)c1ccccc1)NC(C)c1ccccc1)OCC (configuration not stated),inactive: -0.433%
2,CCOP(=O)(Nc1ccc(C)cn1)OCC,inactive: -0.414%
3,Clc1n[nH]nc1-c1nn[nH][15n]1,inactive: -1.75%
4,CC(C)(C)C(=O)NC(Sc1ncccn1)C(Cl)(Cl)Cl (configuration not stated),inactive: -2.22%
5,O=P1(Nc2ncccn2)COc2ccccc2OC1,inactive: -0.588%
6,Nc1cccc([As](=O)(O)c2ccccc2)c1,inactive: -0.2%
7,O=[As](O)(c1cccs1)c1cccs1,inactive: 0.775%
8,Cc1ccc(OCC(=O)OC2CN3CCC2CC3)cc1 (configuration not stated),inactive: -3.68%
9,NS(=O)(=O)c1cccc(NC(=O)COC(=O)C(O)(c2ccccc2)c2ccccc2)c1,inactive: -0.643%
10,O=P1(Nc2ccc(Br)cn2)COc2ccccc2OC1,inactive: -1.29%
11,Cc1nn(-c2ccccc2)c2c1P(=O)(N1CCOCC1)N(C)C(c1ccccc1)=N2 (configuration not stated),inactive: -0.645%
12,Cc1ccc(C(=O)OC2CN3CCC2CC3)cc1 (configuration not stated),inactive: -0.192%
13,CC1CCC(C(C)C)C(OP(=O)(Nc2ccccn2)c2ccccc2)C1 (configuration not stated),inactive: -4.75%
14,CN(C)C1(CNC(=O)c2ccc(S(C)(=O)=O)cc2)CCCCC1,inactive: -0.624%
15,O=C(/C=C/c1ccccc1)OC1CN2CCC1CC2 (configuration not stated),inactive: -1.28%
16,CCCC1OP(=O)(Nc2ccccc2)OCC1CC (configuration not stated),inactive: -1.37%
17,NC(=O)Nc1ccc([As](=O)(O)O)cc1,inactive: 0.354%
18,N#CCCN(C(=O)COC(=O)C(O)(c1ccccc1)c1ccccc1)c1ccc(F)cc1,inactive: -1.74%
19,CN(C(=O)Cc1ccccc1)[C@@H]1CC[C@]2(CCCO2)C[C@H]1N1CCCC1,inactive: -0.33%

row,Compound,inhibition
1,CCOP1(=S)c2c(C)nn(CCC#N)c2N=C(c2ccc(F)cc2)N1C (configuration not stated),inactive: -0.0185%
2,CN(C)C(=O)c1cc([N+](=O)[O-])cc2c1-c1c(cc([N+](=O)[O-])cc1[N+](=O)[O-])C2=O,inactive: 0.968%
3,CN(C(=O)Cc1ccc(Cl)c(Cl)c1)[C@H]1CC[C@@]2(CCCO2)C[C@@H]1N1CCCC1,inactive: -1.47%
4,CCOP1(=S)c2c(C)nn(CCC#N)c2N=C(c2ccccc2F)N1C (configuration not stated),inactive: -2.61%
5,O=P(Nc1nccs1)(Oc1ccccc1)Oc1ccccc1,inactive: 0.669%
6,O=P(Nc1nccs1)(c1ccccc1)c1nc2ccccc2s1 (configuration not stated),inactive: -0.032%
7,CS(=O)(=O)c1cc([N+](=O)[O-])c2no[n+]([O-])c2c1,inactive: 0.0772%
8,O=C(O)COc1ccc([As](=O)(O)O)cc1[N+](=O)[O-],inactive: -0.86%
9,Nc1ccccc1[As](=O)(O)c1ccccc1,inactive: -0.152%
10,Cc1ccc(NCCc2c([N+](=O)[O-])cc([N+](=O)[O-])cc2[N+](=O)[O-])cc1,inactive: -0.202%
11,CCCOP(=S)(Nc1nc(N)cc(=O)[nH]1)OCCC,inactive: -1.43%
12,COc1cc(C2NCCC3(OCCO3)C2(C)C)cc(OC)c1OC (configuration not stated),inactive: -0.664%
13,CCOP(=O)(Nc1cccc2ccccc12)OCC,inactive: -2.9%
14,O=C(OC1CN2CCC1CC2)c1ccc(Cl)cc1 (configuration not stated),inactive: -0.746%
15,O=[As](O)(O)c1cccnc1,inactive: -0.331%
16,COc1cc(C(=O)NCC2(N3CCOCC3)CCCCC2)cc(Cl)c1OC(C)C,inactive: -1.23%
17,CS(=O)(=O)c1ccc(Cl)c(NC(=O)COC(=O)C(O)(c2ccccc2)c2ccccc2)c1,inactive: -1.19%
18,Cc1cccc(OCC(=O)OC2CN3CCC2CC3)c1 (configuration not stated),inactive: -0.892%
19,O=[As](O)(c1cccc(O)c1)c1cccc(O)c1,inactive: 0.0975%
